The text below walks through data of patent US20200362033A1 (Daiichi Sankyo, published 2020).

The chains are these.
T1: hCD147v2 (22-205), CD147 protein expressed in Escherichia coli, tag cleaved (human, UniProt P35613-2 22-205)
T1 construct: also called human CD147
T1 sequence: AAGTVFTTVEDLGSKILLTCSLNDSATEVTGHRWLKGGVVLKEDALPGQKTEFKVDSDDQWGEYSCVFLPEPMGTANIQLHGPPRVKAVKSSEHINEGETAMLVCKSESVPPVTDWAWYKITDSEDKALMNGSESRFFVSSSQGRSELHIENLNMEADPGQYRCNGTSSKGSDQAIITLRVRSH

B1: 4A5 (prepared based on the sequences of WO2010/036460) (antibody, V domains shown)
VH: EVQLQQSGPELVKPGASVKISCKASGYTFTDYYMNWVKQSHGKSLEWIGGINPNNGGTSYNQKFKGKATLTVDKSSSTAYMELRSLTSEDSAVYYCARNDGYRGYAMDYWGQGTSVTVSS
VL: not shown
B2: PPAT-082-03 (prepared based on the sequences of WO2017/061602) (antibody, V domains shown)
VH: QVQLVQSGAEVKEPGASVKVSCKASGYTFTSYGISWVRQAPGQGLEWMGWINPNSGGTNYAQKFQGRVTMTRDMSISTAYMELSRLRSDDTAVYYCARGRGSYYAFDIWGQGTMVTVSS
VL: not shown
B3: 5F6 (prepared based on the sequences of WO2010/036460) (antibody, V domains shown)
VH: EMKLEESGGGLVQPGGSMKLSCVASGFTFSNYWMNWVRQSPEKGLEWVAQIRLKSYNYATHYAESVKGRFTISRDDSKSSVYLQMNNLRAEDTGIYYCTPDGSDYWGQGTTLTVSS
VL: SIVMTQTPKFLLVSAGDRVTITCKASQSVSNDVAWYQQKPGQSPKLLIYYASNRYTGVPDRFTGSGYGTDFTFTISTVQAEDLAVYFCQQDYSSPYTFGGGTKLEIK

This experiment concerns the target T1, hCD147v2 (22-205), CD147 protein …. Nature of the experiment: SPR (Biacore T200), antibody captured, CD147 as analyte, 1:1 model.
On to B1, for which the Kd is 132 nM. Under B2 stands 33.2 nM; under B3, 71.9 nM.
